# uPA surface inh: cell surface uPA generation inhibition; Potency, µM (doses to about 38.3 µM), for inactives: at the top dose activity change, negative = inhibition, actives largely listed as inhibitors; cell surface uPA generation assay, qHTS; 330,000 compounds, 0.31% hits; active = well fitted inhibition curve with a large enough effect; inconclusive = small, poorly fitted or top-dose-only effect; inactive = no such curve, though single readings can be large or run the other way; tested in mouse RAW 264.7 cells; note: potency is the fitted concentration of half-maximal effect; % is set by controls: 0 for no effect and ±100 for the full control effect; nearly all actives have a fitted effect of over 55% in size
# TDP1 inh: TDP1 (human) enzyme inhibition. AID 485290. Potency, µM (titrated, usually from 130 µM), without a hit: at the highest dose activity change, negative = inhibition, usual class: inhibitors. 350,000 compounds, 0.28% hits. recombinant TDP1, AlphaScreen DNA substrate cleavage. Q9NUW8; note: potency is the fitted concentration of half-maximal effect; % is set by controls: 0 for no effect and ±100 for the full control effect; nearly all actives have a fitted effect of over 40% in size
#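 Here, a 5' biotin and 3' phosphotyrosine-FITC DNA oligonucleotide reports Tdp1 activity: intact substrate bridges AlphaScreen beads, while cleavage leaves a 3' phosphate and drops signal. All incubations at room temperature.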
# TDP1 cell CPT: DT40-hTDP1 cell growth loss with CPT. chicken DT40 Tdp1-/-;hTDP1 cells + 20 nM CPT, ATP luminescence, 48 h. Potency, µM (series often up to 46.2 µM), for inactives: top-dose activity change, negative = growth inhibition, hits mostly inhibitors. 420,000 compounds, 12% hits; note: potency is the fitted concentration of half-maximal effect; % is set by controls: 0 for no effect and ±100 for the full control effect; nearly all actives have a fitted effect of over 55% in size
#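 Cell growth measured by CellTiter-Glo luminescence after a minimum 48 h, 37 C compound exposure with 20 nM CPT in Tdp1-knockout DT40 cells stably expressing hTDP1, seeded 400/well; qHTS titration format.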
# miR-21 reporter: miR-21 reporter, rising signal; HeLa miR-21 FLuc reporter, luciferase, 48 h; Potency, µM (top dose mostly 38.3 µM), without a hit: at the highest dose reporter change, positive = more light; 340,000 tested, under 10 active; active = well fitted rising curve with a large enough effect; inconclusive = small, poorly fitted or top-dose-only effect; inactive = no such curve, though single readings can be large or run the other way;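 further: % of control where 0% means no effect; miR-21 action dims this reporter so a rising signal means less miR-21 action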
#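 Luminescence from a firefly luciferase reporter carrying a miR-21 binding site downstream, stably expressed under a CMV promoter in HeLa cells that make miR-21 endogenously, reports miRNA modulation after 48 h compound exposure up to approximately 40uM final.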
# TDP1 cell noCPT: qHTS for Inhibitors of human tyrosyl-DNA phosphodiesterase 1 (TDP1): qHTS in cells in absence of CPT. DT40 Tdp1-/- hTDP1 cells, no CPT, ATP luminescence, 48 h. Potency, µM (top dose mostly 46.2 µM), for the others: top-dose activity change, negative = growth inhibition, usual class: inhibitors. 420,000 compounds, 15% hits. AID 686978, 2013; note: potency is the fitted concentration of half-maximal effect; % is set by controls: 0 for no effect and ±100 for the full control effect; nearly all actives have a fitted effect of over 55% in size
#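 Readout: luminescence from CellTiter-Glo after 30 min in the dark at RT. Cells: DT40 Tdp1-/- with stable hTDP1, 400/well. Exposure: compounds alone, ≥48 hr, 37 °C.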
# Active calls of the source: *; ? = inconclusive; · = no result. In the library only some 16% were active in any assay of this set; here they are far more common. Unless noted, calls come from the whole dose curve; as a rule, active = well fitted curve in the direction sought with a large enough effect; inconclusive = small, poorly fitted or top-dose-only effect, or another doubt; inactive = no such curve, though single readings can be large; an effect the other way counts as inactive or inconclusive.
SMILES,uPA surface inh,TDP1 inh,TDP1 cell CPT,miR-21 reporter,TDP1 cell noCPT
O=C(CSc1n[nH]c(-c2cccs2)n1)N1CCCC1,-4.5%,0.3%,-15.3%,·,15.6%
Cc1ccc(S(=O)(=O)N2[C@@H](c3cccc(Cl)c3)C(C(=O)OC(C)(C)C)=CC[C@H]2c2ccc(C(C)C)cc2)cc1,·,·,?,·,14.6µM*
Cc1ccc(S(=O)(=O)N2[C@@H](c3ccc(Cl)cc3)C(C(=O)OC(C)(C)C)=CC[C@H]2c2ccc(Cl)c(Cl)c2)cc1,·,·,?,·,14.6µM*
COc1ccc([C@@H]2CC=C(C(=O)O)[C@H](c3ccc(C(C)(C)C)cc3)N2S(=O)(=O)c2ccc(C)cc2)cc1OC,-12.1%,2.6%,?,·,14.6µM*
O=C(C1CCN(Cc2cc(Cl)ccc2O)CC1)N1CCN(Cc2ccccc2)CC1,-5.6%,0.0%,?,13.7%,20.6µM*
COc1ccc(Br)cc1CN1CCCC(C(=O)N2CCCCCC2)C1 (configuration not stated),-9.4%,-6.2%,?,11.8%,23.1µM*
O=C(C1CCCN(Cc2cccc(Cl)c2)C1)N1CCCCC1 (configuration not stated),-17.9%,·,?,-1.2%,25.9µM*
Cc1cn([C@H]2C[C@H](O)[C@@H](CNC(=O)[C@@H]3CCCN3Cc3ccccc3)O2)c(=O)[nH]c1=O,·,·,4.1%,·,3.2%
CCn1cc(CN2CCC(C(=O)Nc3ccc(Oc4ccccc4F)cc3)CC2)c(C)n1,-7.4%,0.3%,?,13.1%,25.9µM*
CCc1ccc(CN2CCC(C(=O)Nc3ccc(Oc4ccccc4)nc3)CC2)o1,-1.4%,7.9%,16.4µM*,19.8%,23.1µM*
CCn1cc(CN2CCC(C(=O)Nc3ccc(Oc4ccccc4)nc3)CC2)cn1,-5.7%,3.1%,-67.5%,4.3%,20.6µM*
Cc1ccc(C)c(NC(=O)Cn2cc(C(=O)C3CC3)c3ccccc32)c1,0.3%,·,?,12.1%,?
CC(=O)c1cn(CC(=O)Nc2ccc(C)cc2C)c2ccccc12,-4.8%,-3.3%,5.17µM*,23.4%,5.8µM*
CCC(=O)c1cn(CC(=O)Nc2cccc(C)c2C)c2ccccc12,-10.9%,·,3.2%,5.5%,-7.1%
CCN1CCN(CC(=O)Nc2cccc(C)c2C)C(=O)C1=O,-62.1%,1.0%,2.31µM*,0.0%,-25.3%
CC(=O)c1cn(CC(=O)Nc2cccc(C)c2C)c2ccccc12,2.2%,-1.2%,?,19.9%,25.9µM*
CCN1CCN(CC(=O)Nc2ccc(C)cc2C)C(=O)C1=O,2.8%,1.3%,13.3%,-5.9%,-13.1%
Cc1ccc(NC(=O)COc2ncnc3c(Cl)cc(Cl)cc23)cc1[N+](=O)[O-],4.3%,1.1%,-24.9%,-9.8%,?
COCCNC(=O)C1CCCN(C(=O)c2ccc3ccccc3n2)CC1 (configuration not stated),·,·,-7.2%,·,-2.8%
Nc1nn2c(-c3ccccc3)cc(=O)[nH]c2c1N=Nc1ccc(Br)cc1,-0.7%,2.7%,?,5.7%,16.4µM*
O=C(NCc1ccccc1Cl)c1ccc(CSCc2cccc(F)c2)o1,·,-5.7%,25.9µM*,-0.5%,?
O=C(NCc1ccc(F)cc1)c1ccc(CSCc2cccc(Cl)c2)o1,·,0.0%,?,2.2%,20.6µM*
CC1CN(C(=O)/C(C#N)=C2\N=C(NC(=O)c3ccccc3Cl)c3ccccc32)CC(C)O1 (configuration not stated),·,5.5%,·,-4.5%,·
O[C@@H]1CN(CC2CCCCC2)[C@@H](c2ccccc2)C[C@H]1n1cc(C2CC2)nn1,·,·,?,·,8.2µM*
O[C@H]1C[C@H](c2ccccc2)N(CC2CCCCC2)C[C@@H]1n1cc(C2CC2)nn1,·,·,10.3µM*,·,7.31µM*
FC(F)(F)c1cccc(Nc2c3c(nc4ccc(Cl)cc24)CCC3)c1,·,2.3%,7.31µM*,?,6.51µM*
Clc1c2c(nc3ccccc13)CCC2,9.0%,·,-22.6%,0.7%,2.2%
Cc1ccc2nc3c(c(Nc4ccccc4)c2c1)CCC3,-6.0%,1.3%,?,17.2%,?

# An excerpt from above, reduced to TDP1 inh, uPA surface inh and miR-21 reporter.
SMILES | TDP1 inh | uPA surface inh | miR-21 reporter
O=C(CSc1n[nH]c(-c2cccs2)n1)N1CCCC1 | 0.3% | -4.5% | ·
COc1ccc(Br)cc1CN1CCCC(C(=O)N2CCCCCC2)C1 (configuration not stated) | -6.2% | -9.4% | 11.8%
FC(F)(F)c1cccc(Nc2c3c(nc4ccc(Cl)cc24)CCC3)c1 | 2.3% | · | ?
CC1CN(C(=O)/C(C#N)=C2\N=C(NC(=O)c3ccccc3Cl)c3ccccc32)CC(C)O1 (configuration not stated) | 5.5% | · | -4.5%

# An excerpt of these results, with bars between the fields.
Compound | uPA surface inh | TDP1 inh | TDP1 cell CPT | miR-21 reporter | TDP1 cell noCPT
FC(F)(F)c1cccc(Nc2c3c(nc4ccc(Cl)cc24)CCC3)c1 | · | 2.3% | 7.31µM* | ? | 6.51µM*
Clc1c2c(nc3ccccc13)CCC2 | 9.0% | · | -22.6% | 0.7% | 2.2%

# Source: PubChem BioAssay (National Center for Advancing Translational Sciences (NCATS))
